Source: PubChem BioAssay AID706 (SRMLSC, 2007)
This is a selection; strong and weak results do not stand in their true shares. Activity calls are given as the source filed them.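 How the source made its calls: active means growth inhibition above a set limit, 3 SD over mean compound inhibition, in both replicates (cut at about 43% in these data); inconclusive means above the limit in only one replicate; inactive means at or below the limit in both replicates.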

Test: Restrictive medium S. cerevisiae growth inhibition, OD615, pilot screen of yeast lifespan reduction project, restrictive growth control (AID 706);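 further: modified DeaD lifespan yeast strain shifted to restrictive glucose medium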
Conditions: OD615, 48 h, at 10 µM, stronger effect = higher value
Method in brief: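 System: Engineered S. cerevisiae DeaD strain | Buffer or medium: Glucose-based CSMM-D restrictive medium | Schedule: 4 h pre-incubation, 48 h exposure at 30 °C | Technique: Optical density at 615 nm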

Row | SMILES | growth inhibition
1 | COC(=O)c1cc2c(s1)N=C(c1ccccc1)N(C)P2(=O)N1CCOCC1 (stereo unspecified) | inactive: -28%
